For orientation: Ki means a measure of affinity in units of concentration, obtained from inhibition or displacement. What is called IC50 is the concentration that gives 50% inhibition.

For this experiment, the target named is T1, human recombinant AT2 receptor (Homo sapiens, UniProt P50052).
T1 construct: purchased Eurofins ITEM26 (protocol number)
T1 sequence (P50052 1-363): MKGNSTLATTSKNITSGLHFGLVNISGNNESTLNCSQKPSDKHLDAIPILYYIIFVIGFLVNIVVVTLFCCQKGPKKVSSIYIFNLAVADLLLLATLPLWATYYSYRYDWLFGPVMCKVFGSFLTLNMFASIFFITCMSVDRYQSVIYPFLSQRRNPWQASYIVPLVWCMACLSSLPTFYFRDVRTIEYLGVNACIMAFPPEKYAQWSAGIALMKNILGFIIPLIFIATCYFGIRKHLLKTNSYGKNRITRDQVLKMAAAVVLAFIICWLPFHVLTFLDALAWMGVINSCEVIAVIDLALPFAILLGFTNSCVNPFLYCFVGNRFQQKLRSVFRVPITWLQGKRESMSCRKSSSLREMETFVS
Kind of experiment: Binding to AT2 receptor, radiometric scintillation assay (Eurofins ITEM26). The following applies: ligand 125I CGP 42112A, * rows = mean of runs.

Where “and” joins values, the source holds several entries; their conditions need not be identical. Equal values may be shown once.

As for `CC(C)Cc1ccc(S(=O)(=O)Nc2ncc(C#N)cn2)c(-c2ccc(Cn3ccnc3C(C)(C)C)cc2)c1` [Example 6, 4′-((2-(tert-Butyl)-1H-imidazol-1-yl)methyl)-N-(5-cyanopyrimidin-2-yl)-5-isobutyl-[1,1′-biphenyl]-2-sulfonamide], the Ki (seven-point dose-response curve) was 6.17 nM and 4.83 nM. For the same compound, the IC50 (test compounds at 1, 10, 100 and 1000 nM, read-out: AT2 GraFit IC50) is 12.3 nM and 6.96 nM and 9.63 nM.

The values above are taken from patent US12441718B2, “Selective angiotensin II compounds” (VICORE PHARMA AB, priority 2021, dated 2025).
